From patent publication US20250228895A1, “COMPOUNDS TO INHIBIT YTHDF2, T HELPER CELLS LACKING EXPRESSION OF YTHDF2, AND METHODS TO TREAT CANCER” (City of Hope, priority 2024, published 2025)

Assay: Body weight and HE staining of organs in DF-A7 treated MC38-bearing mice
Conditions: 2.5 mg/kg i.p. days 1 and 8; vs vehicle group

## O=C1c2c(O)ccc(O)c2C(=O)c2c(NCCNCCO)ccc(NCCNCCO)c21 [DF-A7]
  morphology of the heart, liver, spleen, lung, and kidney (HE staining): no differences
